# AlphaSeq binding of Ab-91 heavy chain variants to a spike HR2 peptide

From the AlphaSeq antibody data of Engelhart et al. 2022 (doi:10.1038/s41597-022-01779-4), copy in the FLAb collection.

The target is the same throughout: PDVDLGDISGINAS, from the HR2 region of SARS-CoV-2 spike.

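Phage display of a naive human antibody library on the peptide gave the parent. The library (AAYL51) carries one to three amino acid substitutions per variant, with no insertions or deletions. In AlphaSeq, yeast of one mating type display the scFv and yeast of the other type display the target. Mating (16 h, 30 °C) was followed by selection of diploids and sequencing of their barcodes. Each replicate has its own calibration line, from reference interactions of the BCL2 family. There are three technical replicates.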

Parent: Ab-91, a human scFv built as VL, three GGGGS repeats, VH. Only the CDRs of the heavy chain vary.
VL: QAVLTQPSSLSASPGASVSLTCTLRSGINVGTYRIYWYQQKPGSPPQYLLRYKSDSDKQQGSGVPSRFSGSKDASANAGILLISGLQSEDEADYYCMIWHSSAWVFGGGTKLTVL
VH: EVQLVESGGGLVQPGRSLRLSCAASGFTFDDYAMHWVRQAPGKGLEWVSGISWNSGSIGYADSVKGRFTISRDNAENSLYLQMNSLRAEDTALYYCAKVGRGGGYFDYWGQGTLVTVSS

Variants are written as CDR1, CDR2 and CDR3 of the heavy chain (limits as in the source). Parent: GFTFDDYAMH, GISWNSGSIGYADSVK, VGRGGGYFDY. Values are log10 of the apparent Kd in nM; lower means stronger binding. Averages over replicates are reported, and they cover detected replicates only. A pair that was not seen in that replicate is written "ND"; this usually means weak binding, but a binder can also be missed. Parent in this assay: reference entry 1.86, copy in this library 0.88.

| # | CDR-H1 | CDR-H2 | CDR-H3 | replicates, log10 nM | mean, log10 nM | control signals |
|---|---|---|---|---|---|---|
| 1 | GFTFDDYAMH | GISWRSGSIFYADSVK | VGRGGGYFDY | 4.32 / 4.67 / 5.10 | 4.70 | 8/9 (5.25) |
| 2 | GFTFLDYGMH | GISWNKGSIGYADSVK | VGRGGGYFDY | 2.82 / ND / ND | 2.82 | 0/9 |
| 3 | GFTFDDYIGH | GISWNSGSIGYADSVA | VGRGGGYFDY | ND / ND / ND | ND | 0/9 |
| 4 | GVTFLDYAMH | GISWNSGSIGYADSVK | VGRGGGGFDY | 4.98 / 6.42 / 5.21 | 5.54 | 7/9 (4.43) |
| 5 | GFTFDDYAMH | SILWNSGSIGYADSVK | VGRGGHYFDY | ND / ND / ND | ND | 0/9 |
| 6 | GFTFDDYAMH | GISWNSGSIGYADSVK | VGRGVVYSDY | 2.25 / 2.37 / 1.69 | 2.10 | 4/9 (3.78) |
| 7 | GFTFDNYAMH | GIEWNSGSIGYADSVW | VGRGGGYFDY | ND / ND / ND | ND | 0/9 |
| 8 | GFTFDDYAMH | GISWNAGSSGYADSVK | VDRGGGYFDY | 1.50 / 1.39 / 0.94 | 1.28 | 2/9 (2.80) |
| 9 | GFTFDDYAMH | GQSWNSGSIGYWDSLK | VGRGGGYFDY | ND / ND / 5.07 | 5.07 | 4/9 (4.50) |
| 10 | GFTFDDYAFH | GISRNSGSIGYADSVM | VGRGGGYFDY | 2.51 / 2.41 / ND | 2.46 | 1/9 (2.54) |
| 11 | GFGFDDYAFH | GISWNSGSIGYADSVK | VGRGGGYFDY | ND / ND / 4.13 | 4.13 | 2/9 (3.73) |
| 12 | GFTFDDNMMH | GISWNSGSIGYADSHK | VGRGGGYFDY | ND / ND / ND | ND | 0/9 |
| 13 | GFTFDDYAMH | GISWNSGSIGYAYSVK | VGRHRGYFDY | ND / ND / ND | ND | 1/9 (3.04) |
| 14 | PFTCDDYAMH | GISWNSGSIGYADSGK | VGRGGGYFDY | ND / ND / ND | ND | 0/9 |
| 15 | GFTFDDYCMH | GISWNNGSIGYADSDK | VGRGGGYFDY | 4.29 / 6.11 / ND | 5.20 | 4/9 (4.38) |
| 16 | GFTFDDYAMP | GISWNSGAIGYADSVK | GGRGGGYFDY | ND / ND / ND | ND | 0/9 |
| 17 | GFTFDWFAMH | GISWNSGSVGYADSVK | VGRGGGYFDY | ND / ND / ND | ND | 0/9 |
| 18 | GFTFDDYAMK | GISWASGSIGYADSVK | VGRGGGYFDY | ND / 3.54 / ND | 3.54 | 3/9 (3.84) |
| 19 | GFTFDDYAMH | GISWNSGGIGYADSVK | VGRGRVYFDY | ND / ND / 5.04 | 5.04 | 4/9 (4.66) |
| 20 | GFTFDDYAMH | GISWNSGSIGYADSVK | VGRGDGYFAY | ND / 4.83 / ND | 4.83 | 0/9 |
| 21 | GFTFDDYAMH | GIAWNSGQIGYADSVK | VGRGGGYFDY | 0.72 / 0.76 / 0.05 | 0.51 | 6/9 (5.72) |
| 22 | GFTFMDYAMH | CISWNSGSIGYADSVK | VGRGPGYFDY | ND / 4.44 / ND | 4.44 | 3/9 (4.82) |
| 23 | GFTFMDYAMH | GISWNSGSLGYADSVK | VGRGGGYHDY | ND / ND / ND | ND | 0/9 |
| 24 | GFTFDDYAMH | EICWNSGSIGYADSVK | VGRGGGYFDD | ND / ND / ND | ND | 0/9 |
| 25 | GFTFGVYAMH | GISWNSGSIGYADSVK | VGRGGLYFDY | 1.33 / 1.26 / 0.68 | 1.09 | 3/9 (4.32) |
| 26 | GFTFDPYADH | GISWNSGSIGYADSVK | VGRGGGYFCY | 4.62 / 4.52 / ND | 4.57 | 6/9 (4.61) |
| 27 | SFTFDDYGMH | GISWNSGSIGYADSVK | TGRGGGYFDY | 3.12 / 3.24 / 2.97 | 3.11 | 2/9 (4.46) |
| 28 | GFTFDDYAMH | GISWNSGSIGYADSVK | VGRGHGYLHY | 0.72 / 0.53 / 0.48 | 0.58 | 0/9 |
| 29 | GGKFDDYAMH | GISWNSGSIGYADSVK | VGDGGGYFDY | 1.81 / 1.91 / 1.62 | 1.78 | 5/9 (4.45) |
| 30 | GFTFDDYAMH | GISWNSGSIGYADSVK | WGRGGGYFDY | 2.83 / 3.82 / 2.22 | 2.95 | 4/9 (4.01) |
| 31 | GFTFDDYAMH | GISWNSGSIHYADSVK | VGRGGGYFDY | ND / ND / ND | ND | 1/9 (4.89) |

Picked from the list: the 4 lowest averages where every replicate gave a value.

| CDR-H1 | CDR-H2 | CDR-H3 | replicates, log10 nM | mean, log10 nM | control signals |
|---|---|---|---|---|---|
| GFTFDDYAMH | GIAWNSGQIGYADSVK | VGRGGGYFDY | 0.72 / 0.76 / 0.05 | 0.51 | 6/9 (5.72) |
| GFTFDDYAMH | GISWNSGSIGYADSVK | VGRGHGYLHY | 0.72 / 0.53 / 0.48 | 0.58 | 0/9 |
| GFTFGVYAMH | GISWNSGSIGYADSVK | VGRGGLYFDY | 1.33 / 1.26 / 0.68 | 1.09 | 3/9 (4.32) |
| GFTFDDYAMH | GISWNAGSSGYADSVK | VDRGGGYFDY | 1.50 / 1.39 / 0.94 | 1.28 | 2/9 (2.80) |

As a blank, each scFv also met three strains without target: over library AAYL51, 21% of these pairings were detected, typically at 4.54 and seldom below 3.26. Also given: how often the same scFv was detected with the empty control strains, with their mean in brackets.